The record followed here is patent publication US10253015B2, “Pyridinyl quinolinone derivatives as mutant-isocitrate dehydrogenase inhibitors” (FORMA TM2, Inc., priority 2014, dated 2019).

The chains behind the UniProt entries cited, without tags or fusion partners.
UniProt O75874, whole entry R132H: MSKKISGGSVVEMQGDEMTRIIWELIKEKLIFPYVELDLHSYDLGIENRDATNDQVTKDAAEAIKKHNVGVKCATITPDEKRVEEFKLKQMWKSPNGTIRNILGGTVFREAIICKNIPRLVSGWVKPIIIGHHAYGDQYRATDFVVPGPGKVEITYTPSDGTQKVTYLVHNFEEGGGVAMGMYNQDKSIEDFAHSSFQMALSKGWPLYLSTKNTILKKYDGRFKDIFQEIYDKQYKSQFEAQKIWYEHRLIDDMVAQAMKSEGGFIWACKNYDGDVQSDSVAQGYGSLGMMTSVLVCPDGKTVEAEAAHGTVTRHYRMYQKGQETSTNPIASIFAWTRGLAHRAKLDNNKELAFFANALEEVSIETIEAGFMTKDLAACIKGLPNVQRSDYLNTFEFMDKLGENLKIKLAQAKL
UniProt O75874, whole entry R132C: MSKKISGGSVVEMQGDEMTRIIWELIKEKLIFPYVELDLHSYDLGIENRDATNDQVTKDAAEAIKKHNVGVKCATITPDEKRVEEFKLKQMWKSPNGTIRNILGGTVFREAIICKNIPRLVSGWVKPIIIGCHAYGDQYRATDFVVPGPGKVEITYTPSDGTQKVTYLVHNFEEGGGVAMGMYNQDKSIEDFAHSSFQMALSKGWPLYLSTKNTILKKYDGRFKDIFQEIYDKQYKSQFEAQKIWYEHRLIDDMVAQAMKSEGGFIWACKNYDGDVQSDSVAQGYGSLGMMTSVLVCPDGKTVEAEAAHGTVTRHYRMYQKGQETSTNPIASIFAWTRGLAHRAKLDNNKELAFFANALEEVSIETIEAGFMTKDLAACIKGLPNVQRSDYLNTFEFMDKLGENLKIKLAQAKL

What is called IC50 is the concentration at which inhibition is half-maximal.

In assay [1] the target is IDH1-R132H recombinant protein (Homo sapiens (Human), UniProt O75874, R132H). The assay is described as follows: IDH1-R132H enzymatic assay. Type of assay: biochemical. As to conditions: inhibition of NADPH consumption, diaphorase/resazurin readout; read-out: Enzyme IDH1 R132H Range IC50. As to the method: (§1) Assays were performed in a 384-well black plate. An aliquot of 250 nL of compound was incubated with 10 μL of 30 nM IDH1-R132H or 10 nM IDH1-R132C recombinant protein in assay buffer (50 mM Tris pH=7.5, 150 mM NaCl, 5 mM MgCl2, 0.1% (w/v) Bovine Serum Albumin, and 0.01% Triton X-100) in each well at 25° C. for 15 minutes. After the plate was centrifuged briefly, an aliquot of 10 μL of 2 mM α-ketoglutarate and 20 μM NADPH solution prepared in assay buffer was then added to each well and the reaction was maintained at 25° C. for 45 minutes. An aliquot of 10 μL of diaphorase solution (0.15 U/mL diaphorase and 30 μM Resazurin in assay buffer) was added to each well. […] The IC50 of a given compound was calculated by fitting the dose response curve of inhibition of NADPH consumption at a given concentration with the four parameter logistic equation.
In general terms: Resazurin is reduced to fluorescent resorufin, in cell work by metabolically active cells.

Assay [2] addresses IDH1-R132C recombinant protein (Homo sapiens (Human), UniProt O75874, R132C). In words: IDH1-R132C enzymatic assay. Type of assay: biochemical. Conditions: inhibition of NADPH consumption, diaphorase/resazurin readout; read-out: Enzyme IDH1 R132C Range IC50. As to the method:
as §1

For `COc1cc(N[C@H](C)c2cc3cc(Cl)ccc3[nH]c2=O)ncc1C#N` [Compound I-3, 6-{[(1R)-1-(6-chloro-2-oxo-1,2-dihydroquinolin-3-yl)ethyl]amino}-4-methoxypyridine-3-carbonitrile], the IC50 in assay [1] and in assay [2] was 1000 to 10000 nM each time. As to `C[C@H](Nc1cccc(N2CCOC2=O)n1)c1cc2cc(Cl)ccc2[nH]c1=O` [Compound I-11, 6-chloro-3-[(1S)-1-{[6-(2-oxo-1,3-oxazolidin-3-yl)pyridin-2-yl]amino}ethyl]-1,2-dihydroquinolin-2-one], the IC50 in assay [2] fell in the range of 100 to 1000 nM. With `COc1cc2[nH]c(=O)c(C(C)Nc3ccc(C#N)c(C)n3)cc2cc1Cl` (centres unmarked) [Compound I-24, 6-{[1-(6-chloro-7-methoxy-2-oxo-1,2-dihydroquinolin-3-yl)ethyl]amino}-2-methylpyridine-3-carbonitrile], the IC50 was less than 100 nM in assay [1] and 100 to 1000 nM in assay [2].
